In patent publication US7678809B2 (priority 1999, dated 2010):

Columns and labels:
[1] = target: Mu opioid receptor (Homo sapiens, UniProt P35372); experiment: Affinity at the μ receptor ([35S]GTPγS binding assay, opioid receptor membranes); assay type: biochemical; conditions: read-out: calc Ki (nM) μ
[2] = target: kappa opioid receptor (Homo sapiens, UniProt P41145); experiment: Affinity at the k receptor ([35S]GTPγS binding assay, opioid receptor membranes); assay type: biochemical; conditions: read-out: calc Ki (nM) k
[3] = target: delta opioid receptor (Homo sapiens, UniProt P41143); experiment: Affinity at the δ receptor ([35S]GTPγS binding assay, opioid receptor membranes); assay type: biochemical; conditions: read-out: calc Ki (nM) δ2
[4] = target: human opioid receptor-like receptor (ORL-1) (Homo sapiens, UniProt P41146); conditions: read-out: Nociceptin Affinity calc Ki; ORL-1 membranes from recombinant HEK-293 cells

Question: `O=c1[nH]c2ccccc2n1C1CCN(Cc2ccc(-c3ccccc3)cc2)CC1` was tested. Which Ki [1] did it give?
Answer: Its Ki is 105 nM.

Question: What about the Ki [2] of the same compound?
Answer: Its Ki is 1300 nM.

Question: And the Ki [3]?
Answer: Its Ki is 3290 nM.

Question: And the Ki [4]?
Answer: Its Ki is 1250 nM.
